Assays:
[1] = plasma and brain concentrations of eslicarbazepine after ESL; assay type: in vivo, mouse; details: MES test, ESL 50 mg/kg p.o.
[2] = target: T1, human Nav1.3 sodium channels (Homo sapiens, UniProt Q9NY46); details: ref Wright et al. [2012]; cited from earlier work
[3] = tested on: P-glycoprotein or multidrug resistance protein (MRP); details: mice; ref Almeida et al. [2009]; Bialer and Soares-da-Silva [2012]; cited from earlier work
[4] = tested on: sodium channels endogenously expressed in N1E-115 mouse neuroblastoma cells; details: cited from earlier work
[5] = target: T1, human Nav1.3 sodium channels; experiment: whole-cell patch clamp, Nav1.3 in CHO-K1 cells; assay type: cell-based; details: for Fast inactivation, individual shifts / Slow inactivation, individual shifts: 250 μmol/L, versus control (bath), mean ± SEM
[6] = tested on: rat NaV1.2 sodium channel; details: ref Pires et al. [2012]; cited from earlier work
[7] = 250 μmol/L, ref Hebeisen et al. [2014]

Chains of the proteins cited; added tags and fusions are not shown.
UniProt Q9NY46, whole entry: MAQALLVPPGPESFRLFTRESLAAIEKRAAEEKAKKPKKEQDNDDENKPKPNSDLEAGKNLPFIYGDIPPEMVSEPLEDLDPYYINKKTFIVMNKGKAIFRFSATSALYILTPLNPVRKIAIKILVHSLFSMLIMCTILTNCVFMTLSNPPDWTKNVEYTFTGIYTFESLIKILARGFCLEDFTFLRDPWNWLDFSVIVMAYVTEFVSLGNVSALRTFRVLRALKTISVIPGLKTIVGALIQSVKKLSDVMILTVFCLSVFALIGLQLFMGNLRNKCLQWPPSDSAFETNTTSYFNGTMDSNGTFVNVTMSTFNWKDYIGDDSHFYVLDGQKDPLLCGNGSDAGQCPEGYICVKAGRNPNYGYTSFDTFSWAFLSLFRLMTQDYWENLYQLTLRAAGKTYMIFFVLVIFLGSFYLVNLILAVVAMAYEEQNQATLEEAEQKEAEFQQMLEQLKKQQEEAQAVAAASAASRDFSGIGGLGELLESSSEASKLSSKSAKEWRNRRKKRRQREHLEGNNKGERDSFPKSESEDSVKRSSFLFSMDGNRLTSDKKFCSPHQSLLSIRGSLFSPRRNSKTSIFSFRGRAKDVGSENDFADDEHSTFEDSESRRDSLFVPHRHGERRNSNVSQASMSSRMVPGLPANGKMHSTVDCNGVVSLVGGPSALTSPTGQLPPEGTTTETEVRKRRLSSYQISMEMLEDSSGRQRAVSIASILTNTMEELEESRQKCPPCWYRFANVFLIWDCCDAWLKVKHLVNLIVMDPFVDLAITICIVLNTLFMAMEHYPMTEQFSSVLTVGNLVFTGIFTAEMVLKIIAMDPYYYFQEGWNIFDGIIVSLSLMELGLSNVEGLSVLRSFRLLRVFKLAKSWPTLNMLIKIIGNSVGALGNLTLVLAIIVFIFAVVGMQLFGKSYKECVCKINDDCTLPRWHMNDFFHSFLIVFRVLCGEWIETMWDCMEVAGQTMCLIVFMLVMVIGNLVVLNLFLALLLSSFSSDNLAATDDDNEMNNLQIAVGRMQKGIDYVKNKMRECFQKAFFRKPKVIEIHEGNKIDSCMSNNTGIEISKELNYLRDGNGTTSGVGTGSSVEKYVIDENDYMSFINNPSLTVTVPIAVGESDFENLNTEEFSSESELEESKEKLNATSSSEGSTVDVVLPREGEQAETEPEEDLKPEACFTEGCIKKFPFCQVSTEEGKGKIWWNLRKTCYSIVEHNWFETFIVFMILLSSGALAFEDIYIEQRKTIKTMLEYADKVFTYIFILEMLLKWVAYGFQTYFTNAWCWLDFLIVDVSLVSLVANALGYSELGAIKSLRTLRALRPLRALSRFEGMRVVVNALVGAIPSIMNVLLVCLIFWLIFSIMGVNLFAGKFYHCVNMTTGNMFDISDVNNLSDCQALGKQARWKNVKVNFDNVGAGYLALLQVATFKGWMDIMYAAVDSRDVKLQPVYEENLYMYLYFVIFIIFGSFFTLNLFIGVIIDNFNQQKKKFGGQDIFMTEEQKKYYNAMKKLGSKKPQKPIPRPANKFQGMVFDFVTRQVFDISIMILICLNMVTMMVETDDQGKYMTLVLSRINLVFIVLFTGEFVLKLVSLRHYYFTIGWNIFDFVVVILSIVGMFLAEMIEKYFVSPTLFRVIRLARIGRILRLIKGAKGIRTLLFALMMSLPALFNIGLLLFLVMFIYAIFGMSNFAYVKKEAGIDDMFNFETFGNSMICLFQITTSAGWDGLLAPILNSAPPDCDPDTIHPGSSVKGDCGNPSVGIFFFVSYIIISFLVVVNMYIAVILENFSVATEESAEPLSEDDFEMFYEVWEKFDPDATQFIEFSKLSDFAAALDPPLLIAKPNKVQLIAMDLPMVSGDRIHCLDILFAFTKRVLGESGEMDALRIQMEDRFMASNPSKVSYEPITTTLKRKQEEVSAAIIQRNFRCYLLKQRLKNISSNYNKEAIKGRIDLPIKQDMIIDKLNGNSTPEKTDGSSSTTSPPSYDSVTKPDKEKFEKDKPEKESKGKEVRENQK

SMILES | concentration in lipid fraction of brain relative to total brain volume [1] [times] | concentration in organic fraction of brain relative to total brain volume [1] [times] | affinity for VGSCs in the resting state relative to CBZ and OXC [2] | affinity relative to CBZ and OXC in more depolarized conditions [2] | brain-to-plasma concentration ratio after verapamil pretreatment [3] | shift of V0.5, voltage dependence of the fast inactivation [4, 7] | shift of V0.5, voltage dependence of the slow inactivation [4, 7] [mV] | affinity for VGSC in the resting state relative to CBZ, OXC and R-licarbazepine ([4]; ref Hebeisen et al. [2011]) | affinity to the slow inactivated state relative to the resting state ([4]; ref Hebeisen et al. [2014]) [times] | Fast inactivation, individual shifts [5] [mV] | Slow inactivation, individual shifts [5] [mV] | Fast inactivation, individual shifts ([5]; listed as Eslicarbazepine) [mV] | Slow inactivation, individual shifts ([5]; listed as Eslicarbazepine) [mV] | affinity to the slow inactivated state relative to the resting state ([5]; IC50 in slow inactivated versus resting state) [times] | affinity relative to OXC and CBZ in more depolarized conditions [6]
NC(=O)N1c2ccccc2C[C@H](O)c2ccccc21 [eslicarbazepine] | 8.3 | 4.6 | about twofold lower than that of CBZ and OXC | ∼threefold lower than CBZ and OXC | failed to affect the eslicarbazepine brain-to-plasma concentration ratio | not influenced | −31.2 | 15- to fivefold lower | 5.9 | −0.83 | −14.40 | −0.83 ± 1.04 | −14.40 ± 2.88 | 2.6 | ∼two- to threefold lower than that of OXC and CBZ
NC(=O)N1c2ccccc2C[C@@H](O)c2ccccc21 [R-licarbazepine, reference compound] |  |  | about twofold lower than that of CBZ and OXC |  | markedly increased the R-licarbazepine brain-to-plasma ratio |  |  |  |  |  |  |  |  |  | 

From publication PMC4448990 (Pharmacology Research & Perspectives, 2015)
